# From US20100021885A1, “REAGENT SETS AND GENE SIGNATURES FOR NON-GENOTOXIC HEPATOCARCINOGENICITY” (priority 2006, published 2010)
# Assays:
# [1] = system: livers from treated male Sprague-Dawley rats; settings: rat, in vivo
# liver of rats = settings: rat, in vivo; cited from earlier work
compound,measurement,setting,value
Cc1cc2c(s1)Nc1ccccc1N=C2N1CCN(C)CC1 [OLANZAPINE],Day 1 (scalar product),[1]; male,−0.58
same,Day 3 (scalar product),[1]; male,−0.56
same,Day 5 (scalar product),[1]; male,−0.54
same,Max (maximum scalar product observed over the multiple time points),[1]; male,−0.54
"ClC(Cl)Cl [chloroform, reference compound]",signature prediction for non-genotoxic hepatocarcinogenicity,[1],positive
C[C@]12C=CC(=O)C=C1CC[C@@H]1[C@@H]2[C@@H](O)C[C@@]2(C)[C@H]1CC[C@]2(O)C(=O)CO [PREDNISOLONE],Class,liver of rats,NGTC
